SMILES strings stand for the structures. pKi: −log10 of the molar value.

Protein sequences, listed by entry. Tags and fused reporters are not part of them.
UniProt Q13535, whole entry: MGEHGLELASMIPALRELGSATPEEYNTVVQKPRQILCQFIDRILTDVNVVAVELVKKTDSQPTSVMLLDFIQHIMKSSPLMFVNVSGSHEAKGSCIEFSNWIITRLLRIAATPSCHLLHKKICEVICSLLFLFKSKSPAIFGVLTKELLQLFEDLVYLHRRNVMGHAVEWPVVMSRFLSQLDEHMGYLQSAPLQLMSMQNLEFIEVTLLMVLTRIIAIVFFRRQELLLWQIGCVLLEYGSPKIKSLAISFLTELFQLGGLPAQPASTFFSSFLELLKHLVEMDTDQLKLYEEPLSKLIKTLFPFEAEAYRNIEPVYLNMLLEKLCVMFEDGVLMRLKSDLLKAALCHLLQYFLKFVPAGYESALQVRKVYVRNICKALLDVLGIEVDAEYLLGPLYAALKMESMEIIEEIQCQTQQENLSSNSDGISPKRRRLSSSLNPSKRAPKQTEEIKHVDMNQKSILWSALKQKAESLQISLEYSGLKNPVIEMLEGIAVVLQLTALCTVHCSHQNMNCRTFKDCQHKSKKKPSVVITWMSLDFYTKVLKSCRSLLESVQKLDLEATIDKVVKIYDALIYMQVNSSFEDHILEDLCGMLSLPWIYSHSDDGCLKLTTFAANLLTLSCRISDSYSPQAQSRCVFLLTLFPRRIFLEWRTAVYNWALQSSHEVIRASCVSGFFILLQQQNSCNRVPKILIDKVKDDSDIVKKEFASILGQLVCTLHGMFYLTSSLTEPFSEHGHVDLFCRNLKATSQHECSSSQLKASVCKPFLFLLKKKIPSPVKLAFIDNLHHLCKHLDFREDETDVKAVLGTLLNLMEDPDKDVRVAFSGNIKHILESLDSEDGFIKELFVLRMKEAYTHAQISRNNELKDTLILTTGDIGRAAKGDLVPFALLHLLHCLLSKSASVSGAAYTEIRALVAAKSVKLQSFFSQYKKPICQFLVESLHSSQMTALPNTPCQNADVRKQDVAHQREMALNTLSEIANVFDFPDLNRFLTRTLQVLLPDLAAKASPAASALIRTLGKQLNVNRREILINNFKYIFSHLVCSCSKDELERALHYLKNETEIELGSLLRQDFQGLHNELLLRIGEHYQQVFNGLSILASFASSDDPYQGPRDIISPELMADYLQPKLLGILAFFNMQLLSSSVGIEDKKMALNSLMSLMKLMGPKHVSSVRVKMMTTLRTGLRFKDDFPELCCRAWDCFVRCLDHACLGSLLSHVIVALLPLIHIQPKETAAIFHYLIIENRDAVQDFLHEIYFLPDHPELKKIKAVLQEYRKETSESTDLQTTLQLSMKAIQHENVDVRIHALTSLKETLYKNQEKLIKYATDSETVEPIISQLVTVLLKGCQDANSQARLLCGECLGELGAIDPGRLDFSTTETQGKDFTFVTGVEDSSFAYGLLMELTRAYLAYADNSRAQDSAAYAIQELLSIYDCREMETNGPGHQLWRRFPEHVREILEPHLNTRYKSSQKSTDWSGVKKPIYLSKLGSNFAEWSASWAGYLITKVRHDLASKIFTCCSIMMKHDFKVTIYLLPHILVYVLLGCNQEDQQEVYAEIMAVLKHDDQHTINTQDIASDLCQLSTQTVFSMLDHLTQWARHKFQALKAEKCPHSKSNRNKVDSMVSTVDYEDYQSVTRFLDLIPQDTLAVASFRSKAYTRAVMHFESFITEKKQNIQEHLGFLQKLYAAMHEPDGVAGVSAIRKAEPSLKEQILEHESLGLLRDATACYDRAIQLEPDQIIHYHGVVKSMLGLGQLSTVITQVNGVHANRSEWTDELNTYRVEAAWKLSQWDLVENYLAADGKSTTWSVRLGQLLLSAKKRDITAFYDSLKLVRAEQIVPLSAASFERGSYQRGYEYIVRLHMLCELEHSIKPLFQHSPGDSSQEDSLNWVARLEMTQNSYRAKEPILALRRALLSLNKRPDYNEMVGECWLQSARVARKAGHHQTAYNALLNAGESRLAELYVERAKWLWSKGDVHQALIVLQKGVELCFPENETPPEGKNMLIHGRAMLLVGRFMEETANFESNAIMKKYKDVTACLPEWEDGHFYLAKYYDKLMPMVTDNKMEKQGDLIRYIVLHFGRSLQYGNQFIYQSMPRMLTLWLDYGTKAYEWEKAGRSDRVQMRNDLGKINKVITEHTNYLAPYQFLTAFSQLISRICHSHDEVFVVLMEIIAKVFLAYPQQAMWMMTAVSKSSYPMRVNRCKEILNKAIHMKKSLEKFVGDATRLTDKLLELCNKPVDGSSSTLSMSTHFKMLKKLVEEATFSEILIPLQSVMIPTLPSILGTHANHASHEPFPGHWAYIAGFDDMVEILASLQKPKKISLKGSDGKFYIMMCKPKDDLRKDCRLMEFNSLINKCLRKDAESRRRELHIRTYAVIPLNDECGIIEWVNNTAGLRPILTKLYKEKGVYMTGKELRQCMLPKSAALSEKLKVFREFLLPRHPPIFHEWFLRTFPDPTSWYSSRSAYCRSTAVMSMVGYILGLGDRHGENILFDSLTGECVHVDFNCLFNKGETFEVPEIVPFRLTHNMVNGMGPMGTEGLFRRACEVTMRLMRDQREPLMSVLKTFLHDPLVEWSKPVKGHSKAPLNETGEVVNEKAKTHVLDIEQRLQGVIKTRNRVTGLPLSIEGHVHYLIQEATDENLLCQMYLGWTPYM

The target in the assay is full-length ATR (Homo sapiens (Human), UniProt Q13535). Nature of the assay: ATR Inhibition Assay (radioactive-phosphate incorporation). The assay is classed as biochemical. The note with it: read-out: ATR Ki.
For `Nc1ncc(-c2ccccc2CO)nc1-c1nnc(-c2ccccc2)o1`, the negative logarithm of the Ki (pKi) was 7.00 to 8.00. In the case of `Nc1ncc(-c2ccc(C(=O)N3CCCNCC3)cc2)nc1-c1nc2ccccc2o1` it was 7.00 to 8.00; in that of `CC(C)S(=O)(=O)c1ccc(-c2cnc(N)c(-c3cc(-c4ccc(CNCCOCCO)cc4)no3)n2)cc1`, > 8.00. As for `CC(C)S(=O)(=O)c1ccc(-c2cnc(N)c(-c3nnc(-c4ccc(CNC(CO)(CO)CO)cc4)o3)n2)cc1`, the negative logarithm of the Ki (pKi) was > 8.00. In the case of `CC(C)(C)OC(=O)N1CCCN(C(=O)c2ccc(-c3cnc(N)c(-c4nc5ccccc5s4)n3)cc2)CC1` it was 7.00 to 8.00; in that of `Nc1ncc(-c2ccc(C(=O)N3CCCNCC3)cc2)nc1-c1nc2ccccc2s1`, 7.00 to 8.00; in that of `CCOP(=O)(OCC)N1CCCN(C(=O)c2ccc(-c3cnc(N)c(-c4nnc(-c5ccccc5)o4)n3)cc2F)CC1`, > 8.00.

For the origin of these results see patent US10479784B2.
